Test results published in PubChem BioAssay AID1832 (Broad Institute, 2009).
The list shows a part of the results, in another mix than the full data. Activity calls are given as the source filed them.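 Rule for the calls: active = inhibition past about -25% in most replicates, and total fluorescence under double the plate's negative control median (limit read from the data); inconclusive = replicates evenly split on the limit, or fluorescence at least double controls; inactive = too little inhibition in most replicates.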

Amino acid sequences for entries named in this document (tags omitted). A change or cut given only in a name is not applied to a line headed by its entry.
UniProt Q9XUB2: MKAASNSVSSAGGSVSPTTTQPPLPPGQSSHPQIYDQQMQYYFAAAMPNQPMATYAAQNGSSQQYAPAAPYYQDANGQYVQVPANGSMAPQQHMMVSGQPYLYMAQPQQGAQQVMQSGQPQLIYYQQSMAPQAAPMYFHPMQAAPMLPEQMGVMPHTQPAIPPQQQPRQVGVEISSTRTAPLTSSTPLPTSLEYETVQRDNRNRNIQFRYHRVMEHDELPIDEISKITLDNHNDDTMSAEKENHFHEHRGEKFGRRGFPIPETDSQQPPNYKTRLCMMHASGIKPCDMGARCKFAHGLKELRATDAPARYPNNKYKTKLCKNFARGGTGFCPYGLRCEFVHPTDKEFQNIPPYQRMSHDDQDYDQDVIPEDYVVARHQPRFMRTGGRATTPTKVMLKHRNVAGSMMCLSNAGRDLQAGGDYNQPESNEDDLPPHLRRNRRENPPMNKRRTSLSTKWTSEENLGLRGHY

Target: Zinc finger protein mex-5 (Caenorhabditis elegans) (UniProt Q9XUB2)
Assay: MEX-5 zinc finger RNA-binding disruptors – biochemical, C. elegans, fluorescence polarization, MLPCN library, primary screen (AID 1832);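 note: 0% = DMSO and -100% = 5 µM competing unlabeled TCR2 RNA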
Details: MEX-5/FITC-TCR2 RNA binding, at 10 µM, hits give low values

Structure (SMILES) | activity score (negative = inhibition of binding)
O=C(O)CNc1ccc([As](=O)(O)O)cc1 | inactive: 0.89%
O=[N+]([O-])c1cccc(NC2=NCC(CBr)S2)c1 (configuration not stated) | inactive: -2%
O=[N+]([O-])c1ncn(CCn2ncnc2[N+](=O)[O-])n1 | inactive: -1.06%
CC(C)(C)C(=O)NC(Sc1ccncn1)C(Cl)(Cl)Cl (configuration not stated) | inactive: 0.497%
O=C(Nc1cc([As](=O)(O)O)ccc1O)c1ccccc1 | inactive: -14.7%
CC1CCN(C(=O)Oc2c(Cl)cc(Cl)c3cccnc23)CC1 | inactive: -0.717%
CC(C)=N/N=C(\N)N[N+](=O)[O-] | inactive: 1.8%
CN(C)C(=O)OCCc1n(C)cc[n+]1C | inactive: -2.23%
CCN(/C(=N/P(=O)(N1CCOCC1)N1CCOCC1)N1CCOCC1)c1ccc(OC)cc1 | inactive: 2.79%
Nc1ccc([As](=O)(O)c2ccc(N)cc2)cc1 | inactive: 1.53%
C[N+]1=C2C=CC=CC=C2SC12C([N+](=O)[O-])=CC([N+](=O)[O-])=C[C-]2[N+](=O)[O-] (configuration not stated) | inactive: -2.61%
Cc1ccc(NP(=O)(Oc2ccccc2)Oc2ccccc2)nc1 | inactive: -1.17%
CCc1nc2c(n1)c1c(non1O)c1c2no[n+]1[O-] | inactive: -1.32%
O=[N+]([O-])c1cc([N+](=O)[O-])c(CCNc2ccccc2)c([N+](=O)[O-])c1 | inactive: 0.418%
O=[N+]([O-])c1cccc2n[nH]nc12 | inactive: -0.849%
CC(=O)N1C2C3N(C(C)=O)C1C1N(C(C)=O)C(C(N1C(C)=O)N3C(C)=O)N2C(C)=O | inactive: -0.288%
COc1ccc(C2=NCC(CBr)S2)cc1 (configuration not stated) | inactive: 4.14%
Oc1ccccc1CNc1ccccn1 | inactive: 1.1%
Cc1c2non([O-])c-2c(C)[n+](=O)[n+]1[O-] | inactive: -2.85%
O=C(NC(Sc1ccncn1)C(Cl)(Cl)Cl)c1ccccc1 (configuration not stated) | inactive: 3.88%
CC(C)CC(=O)NC(Sc1ccc(Cl)cc1)C(Cl)(Cl)Cl (configuration not stated) | inactive: 0.087%
Nc1cc(N)c2nonc2c1[N+](=O)[O-] | inactive: -1.01%
Clc1ccc(Cl)c(NC2=NCC(CBr)S2)c1 (configuration not stated) | inactive: -0.418%
CN1CCCC(OC(=O)C(c2ccccc2)c2ccccc2)C1 (configuration not stated) | inactive: -1.49%
COc1ccccc1OP(=O)(Nc1ccc(C)cn1)Oc1ccccc1OC | inactive: 0.881%
Cc1ccc(OP(=O)(Nc2nccs2)Oc2ccc(C)cc2)cc1 | inactive: 1.75%

Structure (SMILES) | activity score (negative = inhibition of binding)
Cc1ccc(N/C(=N/P(=O)(N2CCOCC2)N2CCOCC2)N2CCOCC2)cc1 | inactive: -1.24%
NC(=O)c1cc([N+](=O)[O-])cc([N+](=O)[O-])c1N | inactive: 1.98%
Nc1cccc2ccc([As](=O)(O)O)cc12 | active: -50.5%
CCN(N=Nc1nonc1N)c1nonc1N | inactive: -2.83%
O=[N+]([O-])c1cc([N+](=O)[O-])c(CCN2CCOCC2)c([N+](=O)[O-])c1 | inactive: -2.65%
CCOP(=O)(Nc1ccccc1)OCC | inactive: -1.12%
Cc1cc(SC(NC(=O)c2ccc(F)cc2)C(Cl)(Cl)Cl)ncn1 (configuration not stated) | inactive: 1.17%
Cc1ccc(NP(=O)(Oc2ccccc2F)Oc2ccccc2F)nc1 | inactive: -1.84%
CN(C(=O)Cc1ccc(Cl)c(Cl)c1)[C@H]1CCCC[C@@H]1N1CCCC1 | inactive: 3.53%
O=P(Nc1nc2ccc(Cl)cc2s1)(c1ccccc1)c1ccccc1 | inactive: -1.75%
O=C(O)c1ccccc1[As](=O)(O)O | inactive: 1.36%
CC(=O)Nc1ccc([As](=O)(O)O)cc1 | inactive: 1.19%
Cc1ccccc1OP(=O)(Nc1ccccn1)Oc1ccccc1C | inactive: 1.3%
CN(C)C(=O)Oc1noc2ccccc12 | inactive: 2.79%
O=C(OC1CN2CCC1CC2)c1ccccc1 (configuration not stated) | inactive: 1.04%
CCC(=O)N1C2C3N(C(=O)CC)C1C1N(C(=O)CC)C(C(N1C(=O)CC)N3C(=O)CC)N2C(=O)CC | inactive: -3.88%
COC(=O)c1cc2c(s1)N=C(c1ccccc1)N(C)P2(=O)N1CCOCC1 (configuration not stated) | inactive: -2.38%
CC(=O)NC(SC(=S)N(CC(C)C)CC(C)C)C(Cl)(Cl)Cl (configuration not stated) | inactive: 0.828%
Cc1ccc(OP(=O)(Nc2ccccn2)Oc2ccc(C)cc2)cc1 | inactive: 0.966%
c1ccc(-c2nn[nH]n2)c(-c2nn[nH]n2)c1 | inactive: 4.92%
Cc1ccc(NP(=O)(Oc2cccc(C)c2)Oc2cccc(C)c2)nc1 | inactive: -0.489%
CCOC(=O)NC(Sc1ccccc1)C(Cl)(Cl)Cl (configuration not stated) | inactive: 0.976%
CCNC(=S)/N=C(\N)N[N+](=O)[O-] | inactive: -1.85%
O=C(NC1CCS(=O)(=O)C1)NP(=S)(Oc1ccccc1)Oc1ccccc1 (configuration not stated) | inactive: 1.62%
CC(=O)Nc1ccc([As](=O)(O)O)c(O)c1 | inactive: -2.45%
CC(=O)Nc1ccc(Oc2c([N+](=O)[O-])cc([N+](=O)[O-])cc2[N+](=O)[O-])cc1 | inactive: -0.109%

Structure (SMILES) | activity score (negative = inhibition of binding)
C[C@@H]1C=CCP(=O)(Oc2ccccc2)O1 (some centres not stated) | inactive: -1.73%
C[C@H]1OP(=O)(Oc2ccccc2)C[C@@H]2O[C@@H]21 (some centres not stated) | inactive: 0.664%
CC(=O)c1ccc(N2CC2c2ccncc2)cc1 (configuration not stated) | inactive: -0.289%
CC(C)(C)C(=O)NC(Sc1ccccc1)C(Cl)(Cl)Cl (configuration not stated) | inactive: -0.176%
O=P1(Nc2nc3ccc(Cl)cc3s2)COc2ccccc2O1 (configuration not stated) | inactive: -0.267%
CCOc1ccc(C2=NCC(CBr)S2)cc1 (configuration not stated) | inactive: -0.196%
c1nnnn1CCn1cnnn1 | inactive: -4.01%
CC(C)C(=O)NC(Sc1ccccc1)C(Cl)(Cl)Cl (configuration not stated) | inactive: 1.99%
O=P(Nc1nccs1)(c1ccccc1)c1ccccc1 | inactive: 1.13%
O=C(OC1CN2CCC1CC2)c1cccc(Cl)c1 (configuration not stated) | inactive: 0.306%
Nc1ccc([As](=O)(O)c2ccc([N+](=O)[O-])cc2)cc1 | inactive: -1.37%
C(Cc1nn[nH]n1)Cc1nn[nH]n1 | inactive: -0.784%
O=[As](O)(c1ccccc1)c1ccc(O)cc1 | inactive: 1.69%
O=[N+]([O-])c1ccc(O)c(/C=N/Nc2ccc([N+](=O)[O-])cc2[N+](=O)[O-])c1 | inactive: 0.594%
O=[N+]([O-])c1ncn(CCn2cnc([N+](=O)[O-])n2)n1 | inactive: 2.31%
O=P(Nc1nc2ccccc2s1)(c1ccccc1)c1ccccc1 | inactive: -3.47%
C[C@H]1OP(=O)(Oc2ccccc2)[C@H](O)[C@H](O)[C@H]1N=[N+]=[N-] (some centres not stated) | inactive: 0.512%
O=P(Nc1ccccn1)(c1ccc(Br)cc1)c1ccc(Br)cc1 | inactive: 0.594%
CN(C)C1(CNC(=O)c2ccc(Cl)c(S(N)(=O)=O)c2)CCCCC1 | inactive: 1.6%
Nc1cccc([As](=O)(O)c2ccccc2)c1 | inactive: -0.505%
O=P1(Nc2ccc(Br)cn2)COc2ccccc2OC1 | inactive: -1.38%
Cc1ccc(OCC(=O)OC2CN3CCC2CC3)cc1 (configuration not stated) | inactive: -1.62%
O=[As](O)(c1cccs1)c1cccs1 | inactive: -1.25%
O=P1(Nc2ncccn2)COc2ccccc2OC1 | inactive: -1.11%
CN(C)C1(CNC(=O)c2ccc(S(C)(=O)=O)cc2)CCCCC1 | inactive: -0.507%
O=C(/C=C/c1ccccc1)OC1CN2CCC1CC2 (configuration not stated) | inactive: -2.67%

Structure (SMILES) | activity score (negative = inhibition of binding)
Cc1nn(-c2ccccc2)c2c1P(=O)(N1CCOCC1)N(C)C(c1ccccc1)=N2 (configuration not stated) | inactive: 1.69%
CC1CCC(C(C)C)C(OP(=O)(Nc2ccccn2)c2ccccc2)C1 (configuration not stated) | inactive: 1.99%
Cc1ccc(C(=O)OC2CN3CCC2CC3)cc1 (configuration not stated) | inactive: -0.264%
CC(C)/C=N\N=C(\N)N[N+](=O)[O-] | inactive: -0.74%
CN(C(=O)Cc1ccc(Cl)c(Cl)c1)[C@@H]1CCCC[C@H]1N1CCCC1 | inactive: -1.21%
O=[As](O)(c1ccccc1Br)c1ccccc1Br | inactive: 1.36%
CC1(CBr)Cn2c(nc3ccccc3c2=O)S1 (configuration not stated) | inactive: -0.000535%
COc1ccccc1CNC(=O)COC(=O)C(O)(c1ccccc1)c1ccccc1 | inactive: -3.57%
Clc1n[nH]nc1-c1nn[nH][15n]1 | inactive: 0.499%
CC(C)(C)C(=O)NC(Sc1ncccn1)C(Cl)(Cl)Cl (configuration not stated) | inactive: -6.5%
O=P1(Nc2ccccn2)COc2ccccc2OC1 | inactive: 1.89%
CCC1=CC2Cc3nc4ccc(Cl)cc4c(N)c3C(C1)C2 (configuration not stated) | inactive: -0.742%
CCOP(=O)(NC(=NC(C)c1ccccc1)NC(C)c1ccccc1)OCC (configuration not stated) | inactive: 0.262%
CN(CCCl)Cc1cc(Cl)c(NC2=NCCN2)c(Cl)c1 | inactive: -0.193%
CCOP(=O)(Nc1ccc(C)cn1)OCC | inactive: -2.09%
COc1cc(C2NCCC3(OCCO3)C2(C)C)cc(OC)c1OC (configuration not stated) | inactive: -1.57%
CCOP(=O)(Nc1cccc2ccccc12)OCC | inactive: 0.34%
Cc1ccc(NCCc2c([N+](=O)[O-])cc([N+](=O)[O-])cc2[N+](=O)[O-])cc1 | inactive: 1.64%
CCCOP(=S)(Nc1nc(N)cc(=O)[nH]1)OCCC | inactive: 1.78%
O=[As](O)(c1cccc(O)c1)c1cccc(O)c1 | inactive: 0.77%
Cc1cccc(OCC(=O)OC2CN3CCC2CC3)c1 (configuration not stated) | inactive: 1.7%
O=C(OC1CN2CCC1CC2)c1ccc(Cl)cc1 (configuration not stated) | inactive: 1.64%
COc1cc(C(=O)NCC2(N3CCOCC3)CCCCC2)cc(Cl)c1OC(C)C | inactive: -1.75%
O=[As](O)(O)c1cccnc1 | inactive: 0.767%
